The values that follow come from PMC7722354, “7-Substituted 2-Nitro-5,6-dihydroimidazo[2,1-b][1,3]oxazines: Novel Antitubercular Agents Lead to a New Preclinical Candidate for Visceral Leishmaniasis” (Journal of Medicinal Chemistry, 2017).

Structures are written as SMILES.

One assay deals with Leishmania infantum. Briefly: L. inf growth inhibition in mouse macrophages (LMPH). It counts as cell-based. To be noted: Macrophage, read-out: IC50 L. inf.
For another assay, the system named is Trypanosoma cruzi. Briefly: T. cruzi growth inhibition on MRC-5 cells (LMPH). It counts as cell-based. To be noted: MRC5, read-out: IC50 T. cruzi.
The test system of a further assay is L. donovani. Briefly: acute VL infection assay (L. don mouse model, LSHTM). To be noted: Leishmania donovani, po, 120 h; for inhibition in vivo at 6.25 mg/kg: read-out: in vivo efficacy against L. don (mouse), % inhibition, 6.25 mg/kg orally once daily 5 days. The class given is in vivo.
The test system of a further assay is L. infantum. Kind of assay: chronic VL infection assay 2 (L. inf hamster model, LMPH). It counts as in vivo, Leishmania infantum. To be noted: 6.25 mg/kg b.i.d. orally 5 days.
The next assay concerns Leishmania donovani. Kind of assay: microbe, parasite or virus in culture. The settings on record: read-out: IC50 L. don.

Turning to `O=[N+]([O-])c1cn2c(n1)OC(COc1ccc(-c3ccc(F)cc3)nc1)CC2` (centres unmarked), the half-inhibitory concentration (IC50) with Leishmania infantum came out at 93 nM; in the assay with Trypanosoma cruzi it was 270 nM. The 50% effect level with L. donovani (ED50) was put at a dose of 5.1 mg/kg. For the same compound, the inhibition in vivo at 6.25 mg/kg in the assay with L. donovani (liver) was determined as 59%. Moreover, the inhibition in vivo at 12.5 mg/kg in the assay with L. donovani (read-out: in vivo efficacy against L. don (mouse), % inhibition, 12.5 mg/kg orally once daily 5 days, liver) is 76%.

Consider `O=[N+]([O-])c1cn2c(n1)O[C@H](COc1ccc(-c3ccc(F)cc3)nc1)CC2`, for which the results for the IC50 with Leishmania infantum, in the assay on Trypanosoma cruzi and in the assay with Leishmania donovani were 220 nM, 290 nM and 80 nM, respectively. Further, the “% inhibition in target organs: bone marrow” value in the assay on L. infantum was 35.0%. Further, in the assay on L. infantum, the “% inhibition in target organs: liver” value is 53.1%. Moreover, the “% inhibition in target organs: spleen” value in the assay on L. infantum is 46.7%.

Take `O=[N+]([O-])c1cn2c(n1)O[C@@H](COc1ccc(-c3ccc(OC(F)(F)F)cc3)nc1)CC2`: the 50% inhibitory concentration (IC50) in the assay on Leishmania infantum was determined as 110 nM; in the assay on Trypanosoma cruzi, 260 nM.

As to `O=[N+]([O-])c1cn2c(n1)O[C@H](COc1ccc(-c3ccc(OC(F)(F)F)cc3)nc1)CC2`, the half-maximal inhibitory concentration (IC50) in the assay with Leishmania infantum and with Trypanosoma cruzi was 130 nM throughout.

For `O=[N+]([O-])c1cn2c(n1)OC(COc1ccc(-c3ccc(F)cc3)cn1)CC2` (centres unmarked) [compound 59, 7-({[5-(4-Fluorophenyl)pyridin-2-yl]oxy}methyl)-2-nitro-6,7-dihydro-5H-imidazo[2,1-b][1,3]oxazine], the IC50 in the assay with Leishmania infantum is 50 nM; with Trypanosoma cruzi it was 27 nM.

Consider `CC1(COc2ccc(-c3ccc(F)cc3)cn2)CCn2cc([N+](=O)[O-])nc2O1` (centres unmarked) [compound 61], for which the figures for the half-maximal inhibitory concentration (IC50) with Leishmania infantum and in the assay on Trypanosoma cruzi were 97 nM and 230 nM, respectively.

On to `O=[N+]([O-])c1cn2c(n1)O[C@@H](COc1ccc(-c3ccc(F)cc3)nc1)CC2` [compound 79, (7R)-7-({[6-(4-Fluorophenyl)pyridin-3-yl]oxy}methyl)-2-nitro-6,7-dihydro-5H-imidazo[2,1-b][1,3]oxazine], for which the half-maximal inhibitory concentration (IC50) in the assay with Leishmania infantum was determined as 80 nM; with Trypanosoma cruzi, 350 nM; in the assay on Leishmania donovani, 30 nM. In addition, in the assay with L. donovani (liver), the inhibition in vivo at 6.25 mg/kg is 93%.

In the case of `CC1(COc2ccc(-c3ccc(F)cc3)nc2)CCn2cc([N+](=O)[O-])nc2O1` (centres unmarked) [compound 90], the figures for the IC50 with Leishmania infantum and in the assay with Trypanosoma cruzi were 590 nM and 260 nM, respectively.

As to `O=[N+]([O-])c1cn2c(n1)OC(COc1ccc(-c3ccc(F)cc3F)nc1)CC2` (centres unmarked) [compound 91], the IC50 in the assay with Leishmania infantum was 30 nM; with Trypanosoma cruzi it was 130 nM.

With `O=[N+]([O-])c1cn2c(n1)OC(COc1ccc(-c3ccc(OC(F)(F)F)cc3)nc1)CC2` (centres unmarked) [compound 93], the values for the concentration for half-maximal inhibition (IC50) in the assay on Leishmania infantum and in the assay with Trypanosoma cruzi were 120 nM and 170 nM, respectively.
